{
  "source": "patent US11814366B2",
  "about": "“Antiviral compounds and use thereof” (UNIVERSITA DEGLI STUDI DI SIENA, priority 2018, dated 2023)",
  "test_system": "TZM-bl cells",
  "assay": "Cytotoxicity, XTT test",
  "conditions": "read-out: Cytotoxicity (TZM-bl cells) CC50",
  "data": [
    {"substance": "maraviroc [reference compound]", "values": [
      {"measurement": "CC50", "result": "> 20", "unit": "µM"}
    ]}
  ]
}
